Test results taken from US5252571A, “1,4-benzothiazine-2-acetic acid derivatives” (Sapporo Breweries Limited, priority 1990, dated 1993).

Tests used:
[1] = molecular target: T1, human placenta aldose reductase (Homo sapiens, UniProt P15121); experiment: Aldose reductase of human origin inhibitory activity; type: biochemical; conditions: ratio of IC50 aldehyde reductase to aldose reductase
T1 construct: The aldose reductase enzyme standard was prepared from human placenta; from tissue; host or cells: human placenta
Experimental: (§1) That is, human placenta stored at -80° C. was homogenized in distilled water followed by centrifugation at 10,000 XG for 15 minutes. […] The dialysate was applied to DEAE-cellulose column. The fraction containing aldose reductase activity eluted by salt concentration gradient was dialyzed and used as aldose reductase enzyme standard. Furthermore, after fractionation with ammonium sulfate solution, the dialysate was applied to Red Sepharose CL-6B, the fraction containing aldehyde reductase activity eluted by salt concentration gradient was dialyzed and used as aldehyde reductase enzyme standard.
That is, 25 μl of the enzyme solution described above and 25 μl of a drug solution in 1% DMSO having various concentrations were added to 200 μl of 40 Mm phosphate buffer (pH 6.2) prepared to contain 0.4 M lithium sulfate and 0.1 mM NADPH (reduced nicotinamide adenine dinucleotide phosphate) in final concentrations and containing 3 mM d1-glyceraldehyde as substrate, respectively.

[2] = molecular target: T2, human placenta aldehyde reductase (Homo sapiens, UniProt P14550); experiment: Aldehyde reductase of human origin inhibitory activity (specificity); type: biochemical; conditions: 15 mM glucuronate
T2 construct: the fraction containing aldehyde reductase activity eluted by salt concentration gradient was dialyzed and used as aldehyde reductase enzyme standard; from tissue; host or cells: human placenta
T2 sequence (P14550 1-325): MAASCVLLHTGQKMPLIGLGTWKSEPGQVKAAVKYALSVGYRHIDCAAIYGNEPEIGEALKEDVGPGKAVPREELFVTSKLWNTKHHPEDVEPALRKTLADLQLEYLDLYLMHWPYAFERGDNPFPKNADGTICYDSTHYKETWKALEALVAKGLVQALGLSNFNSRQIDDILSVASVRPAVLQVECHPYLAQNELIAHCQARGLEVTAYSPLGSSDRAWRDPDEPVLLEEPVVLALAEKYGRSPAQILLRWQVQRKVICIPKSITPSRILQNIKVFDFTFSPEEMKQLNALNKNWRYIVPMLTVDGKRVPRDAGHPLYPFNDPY
Experimental: as §1
That is, the activity was determined in a manner similar to the case of determining aldose reductase activity, using 200 mM phosphate buffer (pH 7.0) prepared to contain 0.1 mM NADPH in a final concentration and 15 mM glucuronate as substrate.

## COc1ccc2c(C(=S)N(C)CC(=O)O)cccc2c1C(F)(F)F [Tolrestat, reference compound]
[1]
  Ratio HPALR/HPAR: 26
[2]; 10 μM, pH 7.0
  10 μM inhibition % HPALR: 95.7%
[2]; pH 7.0, read-out: IC50 HPALR (in parentheses, *IC50 : μM)
  IC50: 0.55 µM
